Apparent affinities of Ab-91 variants for a coronavirus HR2 peptide

From the AlphaSeq antibody data of Engelhart et al. 2022 (doi:10.1038/s41597-022-01779-4), copy in the FLAb collection.

Target peptide (SARS-CoV-2 spike, HR2 region): PDVDLGDISGINAS

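The starting antibody came from a phage panning campaign against this peptide. In library AAYL51, one, two or three CDR residues were substituted; doubles and triples were drawn at random. In AlphaSeq, yeast of one mating type display the scFv and yeast of the other type display the target. Pairs that bind mate more often; barcode pairs of the diploids are counted by sequencing. Scores were corrected for input abundance and mapped to Kd with protein pairs of known affinity run in the same pool. The assay was run in three technical replicates.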

The variants keep the light chain, the linker and the frameworks of Ab-91 (scFv order VL, the linker GGGGSGGGGSGGGGS, VH).
VL: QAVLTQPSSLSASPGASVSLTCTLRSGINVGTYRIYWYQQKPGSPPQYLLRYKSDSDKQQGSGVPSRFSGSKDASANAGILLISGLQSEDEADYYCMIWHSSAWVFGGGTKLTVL
VH: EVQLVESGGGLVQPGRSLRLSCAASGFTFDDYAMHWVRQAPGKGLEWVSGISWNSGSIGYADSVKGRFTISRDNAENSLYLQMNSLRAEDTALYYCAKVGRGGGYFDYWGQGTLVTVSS

Positions count from residue 1 of the parent VH; F27L puts L in place of F.
Values are log10 of the apparent Kd in nM; lower means stronger binding.
A mean of the replicates is given; it leaves out those without a signal.
"nd" means that the variant was in the library but no mating with the target was seen in that replicate; the authors take this as a sign of poor binding, and no number exists.

changes	log10 Kd, replicates	mean, log10 nM	control signals
F27L S55P G100Y	nd / nd / nd	nd	0 of 9
F29K H35N G59S	nd / nd / nd	nd	3 of 9 (4.30)
G50I D62K D107A	nd / nd / nd	nd	0 of 9
T28M S63Y Y108G	1.36 / 1.52 / 0.99	1.29	1 of 9 (5.13)
D30T H35G D107P	nd / nd / nd	nd	1 of 9 (3.83)
Y32I	3.68 / nd / 5.46	4.57	3 of 9 (3.86)
Y32W I58N V99A	4.09 / nd / nd	4.09	1 of 9 (3.88)
G26Y T28E Y108P	3.85 / 3.83 / 3.49	3.72	1 of 9 (5.06)
Y32P S55M K65S	nd / 4.90 / 4.25	4.58	3 of 9 (4.56)
G56F	4.31 / 4.06 / 5.17	4.52	3 of 9 (4.69)
Y32L Y60P V99P	5.10 / 4.17 / nd	4.63	3 of 9 (4.69)
D31H G56N V64D	3.74 / 4.85 / 4.40	4.33	5 of 9 (3.56)
D31A G102K G103H	3.88 / 6.48 / 4.36	4.91	1 of 9 (5.25)
F27T Y60E D62L	4.16 / nd / nd	4.16	1 of 9 (4.45)
W53F G103I F106Y	nd / nd / nd	nd	0 of 9
I51W V99Q F106Y	nd / nd / nd	nd	0 of 9
G59Q D62F F106G	nd / nd / nd	nd	0 of 9
T28N H35F	nd / nd / nd	nd	0 of 9
N54L S63Q	5.35 / 4.34 / 4.95	4.88	2 of 9 (4.80)
D31L Y32V D62T	4.23 / nd / nd	4.23	0 of 9
F27D G102N Y105V	nd / nd / 4.30	4.30	1 of 9 (4.11)
N54V S57I Y105Q	4.59 / nd / 5.41	5.00	8 of 9 (4.69)
A33N S55W R101F	5.11 / 7.29 / 5.19	5.86	7 of 9 (4.92)
D30I W53V S63Q	4.77 / nd / nd	4.77	0 of 9
G26L G103W F106T	4.72 / nd / nd	4.72	0 of 9
D31H G100D Y108V	nd / nd / nd	nd	0 of 9
G26E S55N	nd / nd / nd	nd	0 of 9
T28R G56T K65F	2.11 / 2.61 / 2.27	2.33	1 of 9 (5.15)
G26W Y105T	nd / nd / nd	nd	1 of 9 (4.39)
I51T G103R	nd / nd / nd	nd	0 of 9
H35Q S57H R101D	4.52 / 4.83 / nd	4.67	4 of 9 (4.47)

Background: pairings of library AAYL51 with three empty control strains gave a value in 21% of cases (median 4.54, 5th percentile 3.26). Values in that range, when seen in few replicates, are hard to tell from nonspecific mating. For each scFv, signals with the empty controls are counted beside the result, with their mean in brackets.
For reference, the parent read 1.86 as the reference entry and 0.88 as a member of this library.